# Measured values as given in PubChem BioAssay AID504904 (The Scripps Research Institute Molecular Screening Center, 2011).
# By UniProt entry, the sequences of proteins in these tests, tags left out.
# UniProt P35372, whole entry, looked up: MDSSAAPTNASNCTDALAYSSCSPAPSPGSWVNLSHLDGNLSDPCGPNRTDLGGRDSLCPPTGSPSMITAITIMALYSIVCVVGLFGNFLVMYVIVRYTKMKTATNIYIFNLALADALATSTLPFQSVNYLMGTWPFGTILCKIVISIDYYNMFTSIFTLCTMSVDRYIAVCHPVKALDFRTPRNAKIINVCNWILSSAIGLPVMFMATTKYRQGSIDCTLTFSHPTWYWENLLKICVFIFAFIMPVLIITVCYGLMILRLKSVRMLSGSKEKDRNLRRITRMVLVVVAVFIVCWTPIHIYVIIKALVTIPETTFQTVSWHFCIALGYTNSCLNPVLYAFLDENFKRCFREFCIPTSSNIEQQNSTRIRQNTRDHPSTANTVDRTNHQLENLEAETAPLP
# UniProt P41143, whole entry, looked up: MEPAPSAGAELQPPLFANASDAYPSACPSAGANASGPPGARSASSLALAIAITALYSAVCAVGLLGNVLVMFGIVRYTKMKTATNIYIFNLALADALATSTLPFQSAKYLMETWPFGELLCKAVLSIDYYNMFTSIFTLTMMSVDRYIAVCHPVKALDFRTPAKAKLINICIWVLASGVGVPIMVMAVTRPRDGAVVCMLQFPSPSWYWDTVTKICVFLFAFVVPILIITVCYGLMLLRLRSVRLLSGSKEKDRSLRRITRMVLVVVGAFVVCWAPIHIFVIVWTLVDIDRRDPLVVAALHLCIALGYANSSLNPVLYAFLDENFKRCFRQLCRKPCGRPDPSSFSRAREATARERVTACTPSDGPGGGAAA
# This is a selection; strong and weak results do not stand in their true shares. Calls of active or inactive are those of the source. Rule as the data show it: active = activation above about 18%; inactive = the rest.
# Molecular target: Mu-type opioid receptor (Homo sapiens) + Delta-type opioid receptor (Homo sapiens) (UniProt P35372+P41143)
# Experiment: agonists of MOR-DOR heterodimerization, confirmation, cell-based, luminescence (AID 504904);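 also: 0% = vehicle-treated cells and 100% = reference agonist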
# Settings: cells, luminescence complementation, at 9.3 µM, active compounds read high
structure (smiles),measurement,value
CN(C(=O)Cc1ccc(Cl)c(Cl)c1)[C@H]1CC[C@@]2(CCCO2)C[C@@H]1N1CCCC1,activation,active: 124%
